Target: NET (Rattus norvegicus, UniProt Q63380)
Assay: biochemical
Details: 3 h, read-out: Ki [SE interval] NET

Chains of the proteins cited; added tags and fusions are not shown. Residues count along the entry.
UniProt Q63380, 1-617: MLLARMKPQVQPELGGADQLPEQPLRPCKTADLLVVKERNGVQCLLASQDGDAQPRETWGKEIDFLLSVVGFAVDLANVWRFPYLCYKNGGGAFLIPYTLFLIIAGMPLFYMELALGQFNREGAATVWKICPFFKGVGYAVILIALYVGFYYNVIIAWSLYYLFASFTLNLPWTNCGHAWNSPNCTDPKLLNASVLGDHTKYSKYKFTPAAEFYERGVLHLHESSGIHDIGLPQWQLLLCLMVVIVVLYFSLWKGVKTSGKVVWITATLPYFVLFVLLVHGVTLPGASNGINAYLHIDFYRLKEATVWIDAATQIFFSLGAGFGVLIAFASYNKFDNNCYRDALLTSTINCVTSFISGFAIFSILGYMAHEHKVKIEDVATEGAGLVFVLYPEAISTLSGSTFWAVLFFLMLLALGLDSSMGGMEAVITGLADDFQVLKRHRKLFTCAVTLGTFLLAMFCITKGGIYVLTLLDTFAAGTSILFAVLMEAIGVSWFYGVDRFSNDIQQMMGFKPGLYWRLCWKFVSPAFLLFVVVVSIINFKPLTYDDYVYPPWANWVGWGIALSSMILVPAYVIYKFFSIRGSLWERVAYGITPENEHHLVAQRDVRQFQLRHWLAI

## NC(=O)C[S+]([O-])C(c1ccccc1)c1ccccc1 (racemic) [(±)-1, reference compound]
  inhibition at 100 µM: < 50%

— paper PMC3954497 (Journal of Medicinal Chemistry, 2014)
